{"source": "ChEMBL document CHEMBL1150452", "about": "“Kinetic characterization of a peptide inhibitor of trypsin isolated from a synthetic peptide combinatorial library” (Bioorg Med Chem Lett, 1995)", "key": {"[1]": {"substrate": "CC[C@H](C)[C@H](NC(=O)[C@H](CCCN=C(N)N)NC(=O)[C@H](C)NC(=O)CNC(=O)[C@H](Cc1ccc(O)cc1)NC(=O)[C@@H](N)Cc1ccc(O)cc1)C(=O)N[C@@H](Cc1ccc(O)cc1)C(=O)N[C@@H](CCCN=C(N)N)C(=O)N1CCC[C@@H]1C(=O)N[C@@H](CC(=O)O)C(=O)N[C@@H](CCCCN)C(=O)N[C@@H](CCSC)C(=O)O", "conditions": "Bos taurus"}, "[2]": {"substrate": "CC[C@H](C)[C@H](NC(=O)[C@H](CCCCN)NC(=O)[C@H](C)NC(=O)CNC(=O)[C@H](Cc1ccc(O)cc1)NC(=O)[C@@H](N)Cc1ccc(O)cc1)C(=O)N[C@@H](C)C(=O)N[C@@H](CCCN=C(N)N)C(=O)N1CCC[C@@H]1C(=O)N[C@@H](CC(=O)O)C(=O)N[C@@H](CCCCN)C(=O)N[C@@H](CCSC)C(=O)O", "conditions": "Bos taurus"}}}
{"protein": "Serine protease 1 (Bos taurus), P00760 (protein) MKTFIFLALLGAAVAFPVDDDDKIVGGYTCGANTVPYQVSLNSGYHFCGGSLINSQWVVSAAHCYKSGIQVRLGEDNINVVEGNEQFISASKSIVHPSYNSNTLNNDIMLIKLKSAASLNSRVASISLPTSCASAGTQCLISGWGNTKSSGTSYPDVLKCLKAPILSDSSCKSAYPGQITSNMFCAGYLEGGKDSCQGDSGGPVVCSGKLQGIVSWGSGCAQKNKPGVYTKVCNYVSWIKQTIASN", "values": [{"measurement": "Km", "setting": "[1]", "value": 18, "unit": "mM"}, {"measurement": "Km", "setting": "[2]", "value": 86, "unit": "mM"}]}
